# Reference: ChEMBL document CHEMBL4390642, “The in vivo antinociceptive and μ-opioid receptor activating effects of the combination of N-phenyl-2',4'-dimethyl-4,5'-bi-1,3-thiazol-2-amines and naloxone” (Eur J Med Chem, 2019)
# Protein sequences, listed by entry. Tags and fused reporters are not part of them.
# UniProt P35372, whole entry: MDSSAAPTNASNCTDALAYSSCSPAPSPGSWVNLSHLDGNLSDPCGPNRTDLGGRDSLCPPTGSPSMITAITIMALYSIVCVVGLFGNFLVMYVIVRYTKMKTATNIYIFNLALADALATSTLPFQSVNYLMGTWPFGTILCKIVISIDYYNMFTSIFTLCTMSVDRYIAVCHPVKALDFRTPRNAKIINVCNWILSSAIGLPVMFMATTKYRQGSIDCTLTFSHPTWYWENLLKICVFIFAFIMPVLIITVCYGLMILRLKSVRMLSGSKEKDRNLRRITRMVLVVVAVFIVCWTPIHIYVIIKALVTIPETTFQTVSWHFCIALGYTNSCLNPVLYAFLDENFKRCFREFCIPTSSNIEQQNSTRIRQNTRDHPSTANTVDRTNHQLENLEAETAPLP
# Assays:
# Assay type in all cases: functional, cell-based
# Mu-type opioid receptor [1] = biological target: T1, Mu-type opioid receptor (Homo sapiens, UniProt P35372); assay: Agonist activity at human mu opioid receptor expressed in CHOK1 cells coexpressing Galpha15 assessed as increase in intracellular calcium flux by measuring Emax in the presence of mu opioid receptor antagonist naltrexone and incubated for 1 hr measured for 90 secs at 1.5 sec interval by FLIPR assay
# Mu-type opioid receptor [2] = biological target: T1, Mu-type opioid receptor; assay: Agonist activity at human mu opioid receptor expressed in CHOK1 cells coexpressing Galpha15 assessed as increase in intracellular calcium flux by measuring Emax in the presence of mu opioid receptor antagonist naloxone and incubated for 1 hr measured for 90 secs at 1.5 sec interval by FLIPR assay
# Mu-type opioid receptor [3] = biological target: T1, Mu-type opioid receptor; assay: Agonist activity at human mu opioid receptor expressed in CHOK1 cells coexpressing Galpha15 assessed as intracellular calcium AUC (0 to 90 secs) in the presence of mu opioid receptor antagonist naltrexone by FLIPR assay relative to morphine
smiles,measurement,setting,value
CCc1ccccc1Nc1nc(-c2sc(C)nc2C)cs1,Emax,Mu-type opioid receptor [1],14000 to 18000
same,Emax,Mu-type opioid receptor [2],10000 to 14000
same,Activity,Mu-type opioid receptor [3],70.7 to 90.9%
